Experiments:
[1] = target: T1, human recombinant ZAP-70 tyrosine kinase (Homo sapiens, UniProt P43403); experiment: kinase substrate profiling on photo-transferred proteins, phosphotyrosine detection; assay type: biochemical; conditions: plus ATP kinase reaction, 30 min at 37° C.
T1 construct: purchased Invitrogen Corporation
T1 sequence (P43403 1-619): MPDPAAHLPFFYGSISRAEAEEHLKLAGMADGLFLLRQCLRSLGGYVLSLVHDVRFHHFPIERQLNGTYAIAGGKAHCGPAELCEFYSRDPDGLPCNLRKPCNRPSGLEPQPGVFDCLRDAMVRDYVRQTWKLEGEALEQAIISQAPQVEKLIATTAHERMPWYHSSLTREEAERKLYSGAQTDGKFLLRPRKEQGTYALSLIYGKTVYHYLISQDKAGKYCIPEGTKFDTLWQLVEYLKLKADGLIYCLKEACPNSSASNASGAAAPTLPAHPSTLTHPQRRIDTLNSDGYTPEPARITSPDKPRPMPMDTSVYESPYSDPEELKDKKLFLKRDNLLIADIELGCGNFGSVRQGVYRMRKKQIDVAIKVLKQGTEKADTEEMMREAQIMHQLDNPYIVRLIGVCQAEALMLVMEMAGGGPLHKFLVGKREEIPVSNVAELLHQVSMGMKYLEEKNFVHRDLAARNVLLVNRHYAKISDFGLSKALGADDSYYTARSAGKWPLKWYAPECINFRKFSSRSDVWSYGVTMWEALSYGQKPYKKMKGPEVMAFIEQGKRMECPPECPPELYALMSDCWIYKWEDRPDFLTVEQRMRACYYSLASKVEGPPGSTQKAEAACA

[2] = target: T2, human recombinant Src pp^60 tyrosine kinase (Homo sapiens, UniProt P12931); experiment: as above; assay type: biochemical; conditions: plus ATP kinase reaction, 30 min at 37° C.
T2 construct: purchased Invitrogen Corporation

## MDM: cell-free expressed human ubiquitin-protein ligase E3 MDM2, contact photo-transferred to microarray
[1]
  phosphorylation by ZAP-70: heavily phosphorylate
[2]
  phosphorylation by Src pp^60: heavily phosphorylate
